These results are taken from patent publication US4966916A (priority 1989, dated 1990).

This assay concerns rats. Description: prostration after administration into the fourth ventricle (Example 1). Format: in vivo, rat.

For `C[N+](C)(C)CCCCCC[N+](C)(C)C` [hexamethonium], the “Prostration EC50” value (fourth ventricle, Table 2) is listed as “IA”.
Turning to `CC(=O)OCC[N+](C)(C)C`, the “prostration / psychotropic activity” value (intraventricular) is “inactive”.
